Test system: 5-HT2A/5-HT2C selectivity (Homo sapiens)
Assay: Selectivity ratio of IC50 for human 5HT2A receptor to IC50 for human 5HT2C receptor

SMILES	Ratio IC50
CN1CCC(N(C)S(=O)(=O)c2cccc(F)c2)CC1	0.77
CN1CCC(N(C)S(=O)(=O)c2ccc(OC(F)(F)F)cc2)CC1	< 0.25
CN1CCC(N(C)S(=O)(=O)c2ccccc2Cl)CC1	2.7

The next lines start with the values.

Ratio IC50	SMILES
0.7	CCCc1ccc(S(=O)(=O)N(C)C2CCN(C)CC2)cc1
0.21	CN1CCC(N(C)S(=O)(=O)c2ccc(I)cc2)CC1
1.4	CCCCOc1ccc(S(=O)(=O)N(C)C2CCN(C)CC2)cc1
11.9	Cc1ccc(S(=O)(=O)N(C)C2CCN(C)CC2)cc1
0.3	CN1CCC(N(C)S(=O)(=O)c2ccc(C(F)(F)F)cc2)CC1

Source: ChEMBL document CHEMBL1932959, “5-HT₂c receptor selectivity and structure-activity relationship of N-methyl-N-(1-methylpiperidin-4-yl)benzenesulfonamide analogs” (Bioorg Med Chem Lett, 2012)
